From patent publication US8367069B2, “Cytotoxic T cell defined EGFR peptide and an optimized derivative peptide” (University of Pittsburgh—of the Commonwealth System of …, priority 2008, dated 2013)

How the values were obtained:
PCI-30 = experiment: IFN-γ ELISPOT, stimulated CD8+ T cells against PCI-30 head and neck tumor cells; type: cell-based, human; details: substance added to CTL plus PCI-30 cells
Description: PBMCs were isolated by density centrifugation on Ficoll-Paque™ PLUS (GE Healthcare Bio-Science AB; SE-751 84 Uppsala) and used to prepare mature DCs using methods described in the art. PBMCs were resuspended at 5×10^7/ml in AIM-V medium (Invitrogen) and were incubated for 90 min in 75-cm^2 tissue culture flasks or six-well plates (37° C.; 5% CO2). Non-adherent (T cell-enriched) cells were gently washed out with HBSS and subsequently frozen. The plastic adherent cells were cultured in AIM-V medium supplemented with 1000 units/ml rhGM-CSF and 1000 units/ml rhIL-4. […] The stimulated CD8^+ T cells were analyzed for specificity in IFN-γ ELISPOT and ^51Cr release assays at day 21 and then every 7 days thereafter.
The recognition of APCs pulsed with polypeptide (EGFR853-861 or EGFR853-861L) and head and neck tumor cells was assessed by ELISPOT assays specific for hu-IFN-γ. […]
After incubation at 37° C. in 5% CO2 for 40 hours (IFN-γ ELISPOT assays), cells were removed by washings with PBS-0.05% Tween 20 (PBS-T). Captured cytokine was detected at sites of its secretion by incubation for 4 hours with biotinylated mAb anti-hIFN-γ (7-B6-1; Mabtech) at 2 μg/ml in PBS-0.5% BSA. […] Spot numbers and spot sizes were automatically determined with the use of computer-assisted video image analysis. […]

PCI-15B tumor cells = experiment: EGFR-specific cross-presentation by DC incubated with PCI-15B tumor cells, IFN-γ ELISPOT / flow cytometry; type: cell-based, human; details: DC incubated with cetuximab-activated NK:PCI-15B cells; 10 μg/ml
Description: DC matured under these conditions were used as targets in an IFN-γ ELISPOT using EGFR853-861-specific CTL as effectors (see FIG. 13).
DC matured for 48 hour were used as targets in an IFN-γ ELISPOT or flow cytometry quantification using EGFR853-861 specific CTL as effectors (see FIGS. 14A-B).

PCI-30 SCCHN cells = experiment: EGFR853-861-specific CTL recognition of mAb-treated PCI-30 SCCHN cells, IFN-γ ELISPOT; type: cell-based, human; details: 10 μg/mL for 18 hours at 37° C.; P≦0.05
[1] = system: EGFR853-861-specific CD3+CD8+ T cells; experiment: EGFR853-861 tetramer staining of circulating CD3+CD8+ T cells of SCCHN patients; type: in vivo, human
Description: CD8+ T cells were stained with EGFR853-861-specific tetramers to quantitate the frequency of circulating CD3^+CD8^+ T cells specific for this EGFR epitope. EGFR853-861 tetramer staining of CD3^+CD8^+ T cells was performed using flow cytometry. The negative control HIV tetramer was used to stain both cetuximab-treated and naïve SCCHN patient PBMC.

cetuximab
change in IFN-γ spots on addition to CTLs (stimulated with EGFR853-861) and PCI-30 cells (PCI-30): increased | tumor antigen (EGFR)-specific cross-presentation by DC (PCI-15B tumor cells): enhanced | EGFR853-861 peptide-specific CTL recognition of PCI-30 cells after incubation with mAb (PCI-30 SCCHN cells): significantly enhanced | frequency of EGFR-specific tetramer+ T cells in PBMC ([1]; HLA-A*0201+ cetuximab-treated vs cetuximab-naïve SCCHN patients, p<0.0022): significantly higher | numbers of EGFR853-specific T cells ([1]; subset of treated patients, as compared to healthy individuals): enhanced numbers
